PubChem BioAssay AID1241 (SRMLSC, 2008)

Assay: compounds inducing NF-kB luciferase expression – cell-based, SH-SY5Y, dose response (AID 1241)
Conditions: SH-SY5Y NF-kB promoter luciferase reporter, fold induction

In the case of `Oc1ccc(/C=C/c2cc(O)cc(O)c2)cc1`, the EC50 is reported as 5.2 µM.
